The source of these data is paper PMC10213791 (Acta Pharmaceutica Sinica. B, 2022).

This assay concerns the target T1, eukaryotic translation initiation factor 2 alpha kinase 2 (EIF2AK2, PKR) (Homo sapiens, UniProt P19525, DEL338-350/H412N/C551A).
T1 sequence (P19525 with tags, fused parts or gaps DEL338-350/H412N/C551A): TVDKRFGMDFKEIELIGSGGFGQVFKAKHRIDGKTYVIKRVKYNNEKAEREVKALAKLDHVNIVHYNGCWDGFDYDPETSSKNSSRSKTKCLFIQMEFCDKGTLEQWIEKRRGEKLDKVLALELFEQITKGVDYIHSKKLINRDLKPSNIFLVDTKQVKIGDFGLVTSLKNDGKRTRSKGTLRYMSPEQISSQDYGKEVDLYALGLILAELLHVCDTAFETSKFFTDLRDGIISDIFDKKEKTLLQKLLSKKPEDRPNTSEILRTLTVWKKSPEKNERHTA
Nature of the assay: SPR. Type of assay: binding.

By Kd is commonly meant a measure of binding affinity in units of concentration. Compound `COc1ccc2cc3[n+](cc2c1OC)CCc1cc2c(cc1-3)OCO2` [BBR, berberine] came in with a Kd of 7.12 µM. In other words, the single-digit micromolar range.
